This assay deals with TGFβ R1 (Homo sapiens, UniProt P36897). Put plainly: TGFβ R1 autophosphorylation protocol (33P-ATP, phosphocellulose filter plate). Particulars: read-out: IC50 for Kinase Inhibition, 10 uM ATP, 170 nM TGFβ R1, 20 minutes at room temperature. Here is the method: The compounds of the invention were tested for their ability to inhibit TGFβ by a TGFβ R^1 autophosphorylation protocol. This was conducted as follows: Compound dilutions and reagents were prepared fresh daily. Compounds were diluted from DMSO stock solutions to 2 times the desired assay concentration, keeping final DMSO concentration in the assay less than or equal to 1%. TGFβ R1 was diluted to 4 times the desired assay concentration in buffer+DTT. ATP was diluted into 4× reaction buffer, and gamma-^33P-ATP was added at 60 uCi/mL.
The assay was performed by adding 10 ul of the enzyme to 20 ul of the compound solution. The reaction was initiated by the addition of 10 ul of ATP mix. Final assay conditions included 10 uM ATP, 170 nM TGFβ R1, and […] in 20 mM MOPS, pH7. The reactions were incubated at room temperature for 20 minutes. The reactions were stopped by transferring 23 ul of reaction mixture onto a phosphocellulose 96-well filter plate, which had been pre-wetted with 15 ul of 0.25M H3PO4 per well. After 5 minutes, the wells were washed 4× with 75 mM H3PO4 and once with 95% ethanol. The plate was dried, scintillation cocktail was added to each well, and the wells were counted in a Packard TopCount microplate scintillation counter.

Protein sequences, listed by entry. Tags and fused reporters are not part of them. Residues count along the entry.
UniProt P36897, 34-503 limits assumed: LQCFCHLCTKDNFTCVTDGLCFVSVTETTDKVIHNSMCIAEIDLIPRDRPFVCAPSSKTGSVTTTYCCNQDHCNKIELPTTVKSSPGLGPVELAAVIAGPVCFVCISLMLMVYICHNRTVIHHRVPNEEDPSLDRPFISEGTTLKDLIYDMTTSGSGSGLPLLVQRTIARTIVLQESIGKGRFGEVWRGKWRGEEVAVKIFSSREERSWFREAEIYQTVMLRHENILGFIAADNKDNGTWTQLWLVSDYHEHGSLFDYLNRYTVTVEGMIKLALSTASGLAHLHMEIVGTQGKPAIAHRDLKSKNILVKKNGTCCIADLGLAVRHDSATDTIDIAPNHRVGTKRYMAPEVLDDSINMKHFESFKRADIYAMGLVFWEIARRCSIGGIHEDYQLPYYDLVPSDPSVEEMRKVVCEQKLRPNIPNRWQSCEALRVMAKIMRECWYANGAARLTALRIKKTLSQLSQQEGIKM

SMILES strings stand for the structures.

For orientation: IC50 means the midpoint of a concentration-inhibition curve.

As for `CNC(=NC#N)NCCNC(=O)c1cnccc1Nc1nc(-c2cc(Cl)ccc2F)ncc1OC`, the IC50 was determined as 140 nM.

The record behind these values is patent publication US20060281763A1, “Carboxamide inhibitors of TGFbeta” (priority 2005, published 2006).
